Test results taken from patent publication US6979686B1, “Substituted pyrazoles as p38 kinase inhibitors” (Pharmacia Corporation, priority 2001, dated 2005).
Like-named read-outs stand apart in the source and are kept apart here.

Chains of the proteins cited; added tags and fusions are not shown.
UniProt Q16539, whole entry: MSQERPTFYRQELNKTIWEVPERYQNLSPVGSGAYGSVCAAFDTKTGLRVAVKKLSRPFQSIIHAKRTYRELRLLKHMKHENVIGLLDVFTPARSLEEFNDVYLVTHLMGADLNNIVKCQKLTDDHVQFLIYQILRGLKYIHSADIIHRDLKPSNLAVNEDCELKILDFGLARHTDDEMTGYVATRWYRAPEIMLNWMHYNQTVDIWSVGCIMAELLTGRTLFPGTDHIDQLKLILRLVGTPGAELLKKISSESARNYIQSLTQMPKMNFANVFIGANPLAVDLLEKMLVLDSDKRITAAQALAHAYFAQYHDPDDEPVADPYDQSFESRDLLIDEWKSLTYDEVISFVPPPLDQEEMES

Key:
[1] = target: human p38 kinase alpha (Homo sapiens, UniProt Q16539); experiment: p38 kinase in vitro assay, phosphorylation of biotinylated PHAS-I with 32P-ATP; format: biochemical
[2] = system: human TNF, human whole blood stimulated with LPS; experiment: TNF inhibition: human whole blood assay; format: cell-based; conditions: read-out: TNF Inhibition-Human Whole Blood Assay; Table 10
[3] = system: TNF-α, U937 human histiocytic lymphoma cell line; experiment: LPS stimulation of TNF production by U937 cells; format: cell-based; conditions: for U937 Cell % inhib @ conc.: @ 1.0 uM, U937 cells stimulated with LPS
[4] = read-out: P38 alpha kinase IC50, in vitro P38-alpha kinase
[5] = read-out: U937 Cell IC50, TNF production, human U937 cells stimulated with LPS

Question: C[C@@H](NC(=O)NCc1[nH]nc(-c2ccc(F)cc2)c1-c1ccncc1)c1ccccc1 was tested. Which IC50 [1, 4] did it give?
Answer: Its IC50 is 130 nM.

Question: Which IC50 [1, 4] does the source give for CN(C(=O)NCc1[nH]nc(-c2ccc(F)cc2)c1-c1ccncc1)c1ccccc1 here?
Answer: Its IC50 is 910 nM.

Question: How did the IC50 [2] turn out when Clc1ccc(-c2n[nH]c(N3CCSCC3)c2-c2ccncc2)cc1 was run?
Answer: The IC50 was > 25000 nM.

Question: Which results are given for Cc1n[nH]c(-c2ccc3c(c2)CCO3)c1-c1ccncc1?
Answer: IC50 ([1]; read-out: p38 kinase IC50, activated human p38 kinase alpha, PHAS-I substrate, 50 μM unlabeled ATP): 800 nM; IC50 ([3]; read-out: U937 Cell Assay IC50, Table 5, LPS-stimulated U937 cells, TNF-α): 208 nM

Question: O=S(=O)(NCc1[nH]nc(-c2ccc(F)cc2)c1-c1ccncc1)c1ccc2ccccc2c1 was tested. Which “U937 Cell % inhib @ conc.” value ([3]; TNF production) did it give?
Answer: The value was 36.0% @.

Question: With O=C(NCc1[nH]nc(-c2ccc(F)cc2)c1-c1ccncc1)N1CCCC1 as the compound, how does the IC50 [1, 4] read?
Answer: The IC50 was 530 nM.

Question: And the “U937 Cell % inhib @ conc.” value ([3]; TNF production)?
Answer: The value was 18% @.

Question: Which IC50 [1, 4] does the source give for CCN(CC)C(=O)NCc1[nH]nc(-c2ccc(F)cc2)c1-c1ccncc1 here?
Answer: Its IC50 is 2400 nM.

Question: What about the IC50 [3, 5] of the same compound?
Answer: Its IC50 is > 1000 nM.

Question: How did the IC50 [1, 4] turn out when O=C(NCc1[nH]nc(-c2ccc(F)cc2)c1-c1ccncc1)N1CCOCC1 was run?
Answer: The IC50 was 550 nM.

Question: What about the IC50 [3, 5] of the same compound?
Answer: The IC50 was > 1000 nM.
